Laboratory results from patent publication US8614220B2, “Substituted pyrazolo-quinazoline derivatives, process for their preparation and their use as kinase inhibitors” (priority 2006, dated 2013).

Amino acid sequences for entries named in this document (tags omitted). Residues count along the entry.
UniProt P53350, 2-345: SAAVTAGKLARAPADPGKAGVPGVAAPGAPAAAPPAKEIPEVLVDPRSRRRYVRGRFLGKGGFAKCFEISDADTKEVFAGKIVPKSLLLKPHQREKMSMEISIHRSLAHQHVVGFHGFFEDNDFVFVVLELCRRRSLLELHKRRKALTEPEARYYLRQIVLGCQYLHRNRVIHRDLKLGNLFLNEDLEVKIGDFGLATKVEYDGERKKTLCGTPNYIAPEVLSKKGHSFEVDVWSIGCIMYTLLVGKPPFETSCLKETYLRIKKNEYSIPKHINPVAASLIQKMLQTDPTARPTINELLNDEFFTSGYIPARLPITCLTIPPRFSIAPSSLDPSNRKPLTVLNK

Target: PLK-1 (Homo sapiens (Human), UniProt P53350)
Test: Biochemical assay for inhibitors of PLK-1 kinase activity (trans-phosphorylation, 33P-ATP, Dowex resin)
Conditions: PLK-1 3 nM, 40 microM ATP, 85 microM alpha-casein
Source text: Reagents/Assay Conditions
• i. Dowex Resin Preparation
Three cycles of mixing are done immediately after the addition of the resin.

With `CN1CCN(c2ccc(OC(F)(F)F)c(Nc3ncc4c(n3)-c3c(c(C(N)=O)nn3C)CC4)c2)CC1` [Code A51B1C1Z, 1-Methyl-8-[5-(4-methyl-piperazin-1-yl)-2-trifluoromethoxy-phenylamino]-4,5-dihydro-1H-pyrazolo[4,3-h]quinazoline-3-carboxamide] the IC50 was 1 nM.
